The values that follow come from paper PMC3543382.

For the assay, the target named is T1, IκB-EYFP (human), P25963.
T1 chain: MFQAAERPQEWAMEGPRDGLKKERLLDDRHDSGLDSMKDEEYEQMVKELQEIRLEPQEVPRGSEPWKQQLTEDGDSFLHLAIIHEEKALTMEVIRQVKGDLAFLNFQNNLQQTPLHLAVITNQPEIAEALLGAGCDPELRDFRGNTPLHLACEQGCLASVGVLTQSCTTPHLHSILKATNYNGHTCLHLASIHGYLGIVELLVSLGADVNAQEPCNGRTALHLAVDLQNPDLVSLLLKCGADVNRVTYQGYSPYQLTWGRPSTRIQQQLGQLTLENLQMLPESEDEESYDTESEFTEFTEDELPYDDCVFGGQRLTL
Nature of the assay: FRET or BRET; sensitised-emission FRET between ECFP (donor) and EYFP/YFP (acceptor) fusion proteins co-expressed in living Arabidopsis thaliana mesophyll protoplasts; confocal laser scanning microscopy, excitation 458 nm and 514 nm. The settings on record: remark: other sources report otherwise. (In general: In BRET a luciferase serves as donor, and the signal depends on an acceptor being close.)

B1: RelA-ECFP, Q04206 1-551 (natural protein)
chain: MDELFPLIFPAEPAQASGPYVEIIEQPKQRGMRFRYKCEGRSAGSIPGERSTDTTKTHPTIKINGYTGPGTVRISLVTKDPPHRPHPHELVGKDCRDGFYEAELCPDRCIHSFQNLGIQCVKKRDLEQAISQRIQTNNNPFQVPIEEQRGDYDLNAVRLCFQVTVRDPSGRPLRLPPVLSHPIFDNRAPNTAELKICRVNRNSGSCLGGDEIFLLCDKVQKEDIEVYFTGPGWEARGSFSQADVHRQVAIVFRTPPYADPSLQAPVRVSMQLRRPSDRELSEPMEFQYLPDTDDRHRIEEKRKRTYETFKSIMKKSPFSGPTDPRPPPRRIAVPSRSSASVPKPAPQPYPFTSSLSTINYDEFPTMVFPSGQISQASALAPAPPQVLPQAPAPAPAPAMVSALAQAPAPVPVLAPGPPQAVAPPAPKPTQAGEGTLSEALLQLQFDDEDLGALLGNSTDPAVFTDLASVDNSEFQQLLNQGIPVAPHTTEPMLMEYPEAITRLVTGAQRPPDPAPAPLGAPGLPNGLLSGDEDFSSIADMDFSALLSQISS
As to B1, the FRET-efficiency turned out to be 0.19.
